{"source": "ChEMBL document CHEMBL1156721", "about": "“Monoquaternary pyridinium salts with modified side chain-synthesis and evaluation on model of tabun- and paraoxon-inhibited acetylcholinesterase” (2008)", "system": "Brain", "experiment": "Permeability across rat brain"}
{"smiles": "C[n+]1ccccc1/C=N/O.[Cl-]", "values": [{"measurement": "permeability", "value": 10, "unit": "%"}]}
